Values of other authors, collected in patent US20150216993A1 (priority 2012, published 2015).

Test system: organophosphate poisoning
Conditions: due to rapid clearance from the body

## C[n+]1ccccc1/C=N/O
  window of time in which the therapeutic is effective: about 10 minutes
